Data on one compound can be found in patent US11485745B2.

For the assay, the system named is A2780 cells. Briefly: In-Vitro Cell Proliferation Assay. Particulars: read-out: Cell Proliferation (IC50), 72 hours, SRB. It counts as cell-based.

As to `Cc1nn(C(C)C)c(C)c1C(=O)N1CCC2(CC1)CC2CNC(=O)c1cc2ccncc2o1` (stereo not shown), the IC50 came to 0.0117 µM.
